Target: T1, P-selectin (Homo sapiens, UniProt P16109)
T1 sequence (P16109 whole entry): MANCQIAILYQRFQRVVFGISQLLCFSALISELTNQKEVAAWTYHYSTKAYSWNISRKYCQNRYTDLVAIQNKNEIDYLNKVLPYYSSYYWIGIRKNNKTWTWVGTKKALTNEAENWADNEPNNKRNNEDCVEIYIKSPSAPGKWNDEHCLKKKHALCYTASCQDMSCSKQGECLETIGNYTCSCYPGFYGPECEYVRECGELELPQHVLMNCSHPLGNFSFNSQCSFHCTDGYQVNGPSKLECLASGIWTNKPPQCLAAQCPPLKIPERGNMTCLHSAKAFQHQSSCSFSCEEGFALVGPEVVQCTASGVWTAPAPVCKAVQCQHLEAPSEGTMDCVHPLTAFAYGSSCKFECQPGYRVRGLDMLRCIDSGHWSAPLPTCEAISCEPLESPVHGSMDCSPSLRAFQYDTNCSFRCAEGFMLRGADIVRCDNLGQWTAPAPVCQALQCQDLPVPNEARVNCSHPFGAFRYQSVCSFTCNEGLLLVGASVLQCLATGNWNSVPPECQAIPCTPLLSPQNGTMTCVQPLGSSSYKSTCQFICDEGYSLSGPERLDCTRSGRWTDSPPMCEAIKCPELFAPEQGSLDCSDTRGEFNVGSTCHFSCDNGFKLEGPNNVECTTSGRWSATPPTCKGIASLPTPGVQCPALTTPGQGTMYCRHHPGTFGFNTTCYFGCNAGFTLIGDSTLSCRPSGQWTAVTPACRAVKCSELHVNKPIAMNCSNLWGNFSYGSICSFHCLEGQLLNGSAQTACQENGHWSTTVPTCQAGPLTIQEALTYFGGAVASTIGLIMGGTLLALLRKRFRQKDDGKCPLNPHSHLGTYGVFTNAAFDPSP
Experiment: Antagonist activity at recombinant human P-selectin assessed as inhibition of P-selection binding to homodimer human PSGL-1-Fc interaction measured after 30 mins by surface plasmon resonance (SPR) spectroscopy

- IC50: 249 µM
Compound: O=C(O)Cc1cccc(-c2cc(CCCCCCc3ccc(O[C@H]4O[C@H](CO)[C@@H](O)[C@H](O)[C@@H]4O)c(-c4cccc(CC(=O)O)c4)c3)ccc2O[C@H]2O[C@H](CO)[C@@H](O)[C@H](O)[C@@H]2O)c1 [BIMOSIAMOSE]
